# Yeast mating assay B: variants of the scFv Ab-14

Reference: Li et al. 2023, doi:10.1038/s41467-023-39022-2. File: FLAb, binding data.

Antigen: PDVDLGDISGINAS, a 14-residue peptide of the SARS-CoV-2 spike HR2 region.

Parent scFv Ab-14: VH joined to VL by the linker GGGGSGGGGSGGGGS. Changes lie in the light chain CDRs alone.
VH: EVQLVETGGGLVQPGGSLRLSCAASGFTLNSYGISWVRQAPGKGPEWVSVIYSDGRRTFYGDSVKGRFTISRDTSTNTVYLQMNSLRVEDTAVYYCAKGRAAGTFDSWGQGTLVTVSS
VL: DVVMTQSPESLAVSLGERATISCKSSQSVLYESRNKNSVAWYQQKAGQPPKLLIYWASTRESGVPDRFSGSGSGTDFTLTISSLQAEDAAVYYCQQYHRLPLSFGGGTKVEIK

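The variants were designed computationally from a first round of random CDR variants and then made and measured. Their group label is 14L_GP_HC (GP: Gaussian process model; HC: hill climbing; a sequence that several methods proposed may carry one label only). AlphaSeq pools MATa yeast showing the antibodies with MATalpha yeast showing the peptide. Binding brings cells together so that they mate, and sequencing counts the barcode pairs among the diploids. Each replicate has its own calibration line, from reference interactions of the BCL2 family. There are six technical replicates.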

Changes read parent residue, position, new residue, counted from the first residue of the VL shown.
Scale: log10 of Kd in nM, estimated from mating counts; low values are strong binders.
A mean of the replicates is given; it leaves out those without a signal.
Where no diploid with the target was found in that replicate, the entry reads "nd": below detection, most likely a poor binder, though not proof of it.
A sequence measured in both rounds can read differently, since the two assays cover different ranges.
Background: pairings of all light chain designs with three empty control strains gave a value in 4% of cases (median 2.64, 5th percentile 1.59). Values in that range, when seen in few replicates, are hard to tell from nonspecific mating. For each scFv, signals with the empty controls are counted beside the result, with their mean in brackets.
The authors' rule: three or more of the six replicates give a measured affinity, fewer mean a poor binder.
The parent sequence was in this pool as ten entries: three were never detected, three once, and four in most replicates, with averages from 0.34 to 2.37.

{"changes": "S25F L30A N35T W56N", "log10 Kd, replicates": "-0.17 / -0.03 / -0.09 / -0.01 / -0.10 / 0.06", "mean log10 Kd (nM)": "-0.06", "signal with controls": "1 of 18 (3.78)"}
{"changes": "S25L S26M V29T L30Q K36Q", "log10 Kd, replicates": "1.45 / 1.18 / 1.18 / 1.24 / 1.10 / 1.27", "mean log10 Kd (nM)": "1.24", "signal with controls": "2 of 18 (2.99)"}
{"changes": "Q27P R34A W56N E61M", "log10 Kd, replicates": "0.12 / -0.13 / -0.06 / -0.32 / 0.12 / 0.01", "mean log10 Kd (nM)": "-0.04", "signal with controls": "0 of 18"}
{"changes": "Q27I V29Y R34E N37F W56E T59Q", "log10 Kd, replicates": "0.88 / 0.66 / 0.35 / 0.56 / 0.56 / 1.28", "mean log10 Kd (nM)": "0.72", "signal with controls": "0 of 18"}
{"changes": "S25V S26R V29N W56N", "log10 Kd, replicates": "0.36 / -0.01 / 0.00 / -0.01 / 0.15 / 0.28", "mean log10 Kd (nM)": "0.13", "signal with controls": "0 of 18"}
{"changes": "S25L V29F S38N W56G P101T", "log10 Kd, replicates": "nd / nd / nd / nd / nd / nd", "mean log10 Kd (nM)": "nd", "signal with controls": "0 of 18"}
{"changes": "K24H Q27F S38N W56N", "log10 Kd, replicates": "0.63 / 0.52 / 0.14 / 0.46 / 0.45 / 0.23", "mean log10 Kd (nM)": "0.41", "signal with controls": "0 of 18"}
{"changes": "S25L S26P Q27N V29T N35Q", "log10 Kd, replicates": "0.63 / 0.61 / 0.37 / 0.31 / 0.44 / 0.58", "mean log10 Kd (nM)": "0.49", "signal with controls": "0 of 18"}
{"changes": "K24H Q27P L30A Y31G W56N", "log10 Kd, replicates": "0.18 / -0.20 / 0.08 / -0.44 / -0.23 / 0.06", "mean log10 Kd (nM)": "-0.09", "signal with controls": "0 of 18"}
{"changes": "S25L S26K V29T E61L", "log10 Kd, replicates": "1.08 / 0.82 / 0.92 / 0.88 / 0.82 / 1.18", "mean log10 Kd (nM)": "0.95", "signal with controls": "1 of 18 (2.51)"}
{"changes": "S25L S26W Q27E W56H S62D", "log10 Kd, replicates": "0.09 / -0.05 / 0.23 / -0.28 / 0.26 / 0.04", "mean log10 Kd (nM)": "0.05", "signal with controls": "1 of 18 (1.76)"}
{"changes": "S25V S26Y Q27P V29Y W56N", "log10 Kd, replicates": "0.96 / 0.50 / 0.33 / 0.28 / 0.39 / 0.50", "mean log10 Kd (nM)": "0.49", "signal with controls": "2 of 18 (3.52)"}
{"changes": "Q27C V29G N35M W56E", "log10 Kd, replicates": "-0.05 / -0.30 / -0.28 / -0.16 / -0.14 / -0.06", "mean log10 Kd (nM)": "-0.17", "signal with controls": "3 of 18 (2.96)"}
{"changes": "K24I S25A S26V V29W W56G S103I", "log10 Kd, replicates": "0.91 / 0.71 / 1.10 / 1.04 / 1.57 / 1.47", "mean log10 Kd (nM)": "1.13", "signal with controls": "2 of 18 (2.07)"}
{"changes": "S25L S26Y V29T E61L", "log10 Kd, replicates": "1.65 / nd / 1.03 / 2.71 / 1.24 / 1.78", "mean log10 Kd (nM)": "1.68", "signal with controls": "1 of 18 (0.98)"}
{"changes": "V29F N35M W56G T59Q", "log10 Kd, replicates": "-0.12 / -0.36 / -0.42 / -0.45 / -0.31 / -0.17", "mean log10 Kd (nM)": "-0.30", "signal with controls": "2 of 18 (2.23)"}
{"changes": "Q27P R34P W56N E61M", "log10 Kd, replicates": "0.02 / 0.04 / 0.10 / -0.08 / -0.10 / -0.06", "mean log10 Kd (nM)": "-0.01", "signal with controls": "0 of 18"}
{"changes": "S25L S26E W56H S62L", "log10 Kd, replicates": "0.53 / 0.52 / 0.77 / 0.26 / 0.36 / 1.03", "mean log10 Kd (nM)": "0.58", "signal with controls": "1 of 18 (2.21)"}
{"changes": "S25A S26P V29W W56G S103I", "log10 Kd, replicates": "0.10 / -0.12 / -0.11 / -0.26 / -0.11 / -0.02", "mean log10 Kd (nM)": "-0.09", "signal with controls": "2 of 18 (3.06)"}
{"changes": "S25Y S26Y Q27P V29Y Y31G W56Q", "log10 Kd, replicates": "0.12 / -0.08 / -0.09 / 0.00 / 0.04 / 0.08", "mean log10 Kd (nM)": "0.01", "signal with controls": "0 of 18"}
{"changes": "S25Q Q27E W56M H98G", "log10 Kd, replicates": "0.08 / 0.17 / -0.28 / -0.38 / 0.15 / 0.17", "mean log10 Kd (nM)": "-0.01", "signal with controls": "0 of 18"}
{"changes": "S25L S26E Q27M V29T W56N", "log10 Kd, replicates": "-0.08 / -0.26 / -0.26 / -0.44 / -0.13 / -0.30", "mean log10 Kd (nM)": "-0.25", "signal with controls": "0 of 18"}
{"changes": "Q27I V29Y R34M W56K A57G", "log10 Kd, replicates": "0.74 / 0.10 / 0.60 / 0.30 / 0.20 / 0.47", "mean log10 Kd (nM)": "0.40", "signal with controls": "1 of 18 (1.55)"}
{"changes": "S25C Y31G S33Q W56D A57I", "log10 Kd, replicates": "-0.30 / 0.01 / -0.10 / -0.22 / -0.22 / 0.19", "mean log10 Kd (nM)": "-0.11", "signal with controls": "0 of 18"}

For reference, 3 entries of the list once more:

{"changes": "S25L S26E W56H S62L", "log10 Kd, replicates": "0.53 / 0.52 / 0.77 / 0.26 / 0.36 / 1.03", "mean log10 Kd (nM)": "0.58", "signal with controls": "1 of 18 (2.21)"}
{"changes": "V29F N35M W56G T59Q", "log10 Kd, replicates": "-0.12 / -0.36 / -0.42 / -0.45 / -0.31 / -0.17", "mean log10 Kd (nM)": "-0.30", "signal with controls": "2 of 18 (2.23)"}
{"changes": "S25V S26Y Q27P V29Y W56N", "log10 Kd, replicates": "0.96 / 0.50 / 0.33 / 0.28 / 0.39 / 0.50", "mean log10 Kd (nM)": "0.49", "signal with controls": "2 of 18 (3.52)"}